# scFv variants of Ab-14 (light chain) against a SARS-CoV-2 spike peptide

Target peptide (SARS-CoV-2 spike, HR2 region): PDVDLGDISGINAS

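Phage display of a naive human antibody library on the peptide gave the parent. Variants in AAYL50 differ from the parent at up to three CDR positions; double and triple changes were sampled at random. Affinity was read by AlphaSeq, a pooled yeast mating assay with surface-displayed partners. Pairs that bind mate more often; barcode pairs of the diploids are counted by sequencing. A regression on co-assayed BCL2-family reference pairs converts the normalised counts of each replicate to an apparent Kd. Mating was done three times.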

Ab-14 is the parent antibody, in scFv form: VH, then a (GGGGS)3 linker, then VL. The heavy chain is unchanged in all variants.
VH: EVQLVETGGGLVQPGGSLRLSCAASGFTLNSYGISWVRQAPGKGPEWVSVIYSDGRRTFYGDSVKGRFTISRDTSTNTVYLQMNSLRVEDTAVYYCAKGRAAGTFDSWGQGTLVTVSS
VL: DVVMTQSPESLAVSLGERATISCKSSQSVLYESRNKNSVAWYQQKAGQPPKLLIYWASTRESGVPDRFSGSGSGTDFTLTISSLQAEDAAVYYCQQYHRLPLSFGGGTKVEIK

Each variant is given by its three light chain CDRs, as the data file delimits them; those of the parent are KSSQSVLYESRNKNSVA, WASTRES, QQYHRLPLS.
Scale: log10 of Kd in nM, estimated from mating counts; low values are strong binders.
A pair that was not seen in that replicate is written "ND"; this usually means weak binding, but a binder can also be missed.
Parent in this assay: reference entry 0.65, copy in this library 1.68.
As a blank, each scFv also met three strains without target: over library AAYL50, 18% of these pairings were detected, typically at 4.19 and seldom below 2.99. Also given: how often the same scFv was detected with the empty control strains, with their mean in brackets.

CDR-L1 | CDR-L2 | CDR-L3 | log10 Kd, replicates | control signals
KSSQSVLIESRNKNSVA | WASTRES | VQYCRLPLS | 1.03 1.12 1.06 | 1/9 (2.93)
KSSQSVWYESRNSNSVA | WAMTRES | QQYHRLPLS | 4.08 5.39 ND | 1/9 (5.19)
KSSQSVLYEYRNKESVA | WASTRES | QIYHRLPLS | 4.58 ND ND | 2/9 (3.96)
KSSQWGLYESRNKNSVA | WAGTRES | QQYHRLPLS | 2.26 2.14 2.39 | 3/9 (4.11)
KSSMSVLYESRNKNSVA | WASTRES | QQHHRLLLS | 2.05 2.95 2.40 | 1/9 (4.20)
KSSQSVLYESRNINSVA | WASTEES | QQYYRLPLS | ND ND ND | 0/9
KSSQSVLYESRNKNSVA | WASTRES | QQYKILPLS | 2.11 ND 1.73 | 0/9
KSSQSVLEESRNKNSVA | WASTDES | QQYHRLPES | 5.05 ND ND | 2/9 (4.76)
KSSQSVKYESRNKNSVA | WASTKES | QQYHRAPLS | 4.54 ND 4.33 | 1/9 (4.01)
KSSQSVLFESRNKNSVM | WASTRES | QQYHRPPLS | 6.26 4.30 4.82 | 3/9 (4.21)
KSSQSVLYESRNKNSVA | WASQREH | QQTHRLPLS | ND ND ND | 0/9
KSSQSVLYESRAKNSMA | WVSTRES | QQYHRLPLS | ND ND ND | 0/9
KSSQSVLYESRNTNSNA | WASTREF | QQYHRLPLS | ND ND ND | 5/9 (4.98)
KSSQSVLYESRNKNSWA | WACTFES | QQYHRLPLS | ND ND ND | 0/9
KSSDSVWYESRNKNSVA | WASTRES | QAYHRLPLS | 1.39 1.70 1.42 | 2/9 (4.69)
KSSQSVLYESRNKNSVA | WAITRES | QQKHPLPLS | 3.90 3.08 3.00 | 5/9 (4.67)
KSSQSVLTESRNKNSVA | WAEYRES | QQYHRLPLS | 3.34 2.48 2.90 | 0/9
KSSQSVLMESRNKNSVD | SASTRES | QQYHRLPLS | ND ND ND | 0/9
KSSQSGLYESRNKNYVA | WASTDES | QQYHRLPLS | ND ND ND | 2/9 (3.19)
KESQSVLYESRNKNSKA | WASTGES | QQYHRLPLS | ND ND ND | 2/9 (4.54)
KSSQSVLYTSRNKNSVA | WASTRES | QQYHYLDLS | 3.69 ND ND | 0/9
KSSQSVLYESENKNSVA | WASTRES | YQYHRLPLS | 2.50 2.27 2.14 | 3/9 (4.20)
KSSQSVLGESRNKNSVA | WASTRES | QQYHRLPLS | ND ND ND | 0/9
ESFQSVLYESRNKNSQA | WASTRES | QQYHRLPLS | ND 3.93 4.90 | 5/9 (4.64)
KSSQSVLYESRNKNSVA | WASTRES | MQYHRLPLS | 0.74 0.91 0.92 | 0/9
KSSQSVLLESRNKPSVA | WASTRES | QQYHRLVLS | ND ND ND | 0/9
KSSQSRLYESRNKNSVA | WASTDES | QQYHRLPLD | 2.67 2.18 2.78 | 5/9 (3.87)
KSSQSSLYASRNKNSVY | WASTRES | QQYHRLPLS | ND ND ND | 0/9
KSSQRVLYESRNKNSVA | WASTRES | WQYHRLGLS | 3.84 3.37 4.07 | 9/9 (4.55)
KSSQSVLYESRNKNSVA | WAHIRES | QQYHRLPLS | 1.30 1.47 1.42 | 4/9 (4.76)
KSSQSVLYESKNKNSVD | WASTRES | NQYHRLPLS | 4.42 4.05 6.12 | 7/9 (4.23)
KQSQSVLYESRNKNGVA | WASTRES | QQYHRLPLH | ND ND ND | 1/9 (3.32)
KSSQSVLYESRNKNSVC | WASTRES | IQYPRLPLS | ND ND ND | 0/9
QGSQSVLYESRNKNSVA | WASTRES | QQYHRLPMS | 2.85 2.57 3.14 | 3/9 (3.79)
KSSQSVLYEFRNKNSVA | WNSTRES | QQYHRRPLS | ND ND ND | 0/9
KSSQSVLYESRNKNSVA | WASTRES | QQYHVLPLS | 2.27 2.35 2.04 | 3/9 (3.40)
KSSQSVLYWSRNKCIVA | WASTRES | QQYHRLPLS | 4.31 ND ND | 1/9 (3.10)
KSSQSVLYESRNKNSVA | WASTRHD | QQYHKLPLS | 0.70 1.01 1.04 | 0/9

From the list, the first 5 with no signal in any replicate:

CDR-L1 | CDR-L2 | CDR-L3 | log10 Kd, replicates | control signals
KSSQSVLYESRNINSVA | WASTEES | QQYYRLPLS | ND ND ND | 0/9
KSSQSVLYESRNKNSVA | WASQREH | QQTHRLPLS | ND ND ND | 0/9
KSSQSVLYESRAKNSMA | WVSTRES | QQYHRLPLS | ND ND ND | 0/9
KSSQSVLYESRNTNSNA | WASTREF | QQYHRLPLS | ND ND ND | 5/9 (4.98)
KSSQSVLYESRNKNSWA | WACTFES | QQYHRLPLS | ND ND ND | 0/9

Values reported by Engelhart et al. 2022, doi:10.1038/s41597-022-01779-4 (FLAb copy).